From ChEMBL document CHEMBL1649517, “Effect of MexXY overexpression on ceftobiprole susceptibility in Pseudomonas aeruginosa” (2009)

What was measured:
Pseudomonas aeruginosa [1] = details: isolate OC16830
Pseudomonas aeruginosa [2] = details: isolate OC16827

## GENTAMICIN
Pseudomonas aeruginosa [1]
  MIC: 0.5 mg/L
Pseudomonas aeruginosa [2]
  MIC: 0.5 mg/L
